The record followed here is publication PMC10294837 (2023).

Amino acid sequences for entries named in this document (tags omitted).
UniProt Q6Q2J0, whole entry: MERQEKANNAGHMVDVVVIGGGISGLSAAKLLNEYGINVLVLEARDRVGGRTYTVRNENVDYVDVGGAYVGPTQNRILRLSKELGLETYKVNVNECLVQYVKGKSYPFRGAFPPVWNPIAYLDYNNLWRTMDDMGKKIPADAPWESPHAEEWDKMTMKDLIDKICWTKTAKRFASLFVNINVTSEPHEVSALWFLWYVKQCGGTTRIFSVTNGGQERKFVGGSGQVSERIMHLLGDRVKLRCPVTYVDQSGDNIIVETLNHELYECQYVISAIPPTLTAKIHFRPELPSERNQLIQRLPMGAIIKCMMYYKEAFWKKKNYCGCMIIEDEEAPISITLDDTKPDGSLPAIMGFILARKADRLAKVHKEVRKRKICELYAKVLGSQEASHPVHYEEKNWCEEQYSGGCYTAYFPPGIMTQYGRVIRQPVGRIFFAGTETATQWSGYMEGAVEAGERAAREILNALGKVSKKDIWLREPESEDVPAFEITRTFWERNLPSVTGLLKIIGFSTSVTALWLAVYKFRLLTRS
UniProt Q6PLK3, whole entry: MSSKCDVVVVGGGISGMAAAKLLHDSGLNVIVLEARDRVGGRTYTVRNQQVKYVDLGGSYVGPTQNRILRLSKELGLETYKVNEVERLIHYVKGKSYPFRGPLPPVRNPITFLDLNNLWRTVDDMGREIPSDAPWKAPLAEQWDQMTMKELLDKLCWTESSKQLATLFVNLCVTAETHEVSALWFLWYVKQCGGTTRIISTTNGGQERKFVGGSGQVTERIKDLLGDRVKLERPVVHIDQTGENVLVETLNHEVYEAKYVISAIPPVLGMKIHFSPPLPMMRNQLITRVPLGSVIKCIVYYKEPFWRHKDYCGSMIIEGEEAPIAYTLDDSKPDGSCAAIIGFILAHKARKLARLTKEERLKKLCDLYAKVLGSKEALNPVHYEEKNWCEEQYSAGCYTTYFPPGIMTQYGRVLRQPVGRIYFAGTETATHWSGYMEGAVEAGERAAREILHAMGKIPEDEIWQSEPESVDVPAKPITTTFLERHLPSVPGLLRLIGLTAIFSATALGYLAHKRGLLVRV

The target in one test is MAO-A (Sus scrofa, UniProt Q6Q2J0). The test is described as follows: MAO-A activity, radiolabeled [3H]serotonin substrate, pig brain mitochondria. It counts as biochemical. The following applies: mean ± SEM, four measurements.
The test system of test [1] is complex I-linked ATP kinetics. Particulars: control = 100%, mean ± SD.
The target of a further test is MAO-B (Sus scrofa, UniProt Q6PLK3). As to the kind of experiment: MAO-B activity, radiolabeled [14C]PEA substrate, pig brain mitochondria. The test is classed as biochemical. Particulars: mean ± SEM, four measurements.
Test [2] concerns complex II-linked ATP kinetics. Particulars: mean ± SD.
For test [3], the system named is complex II-linked ATP content. Particulars: 100 μmol/L, mean ± SD.
The subject of test [4] is complex IV (cytochrome c oxidase). Particulars: 100 μmol/L drug, mean ± SD, 30 min at 30 °C.

Where two headings read alike, the source gives them in different places.

As to `CN(C)CCC[C@@]1(c2ccc(F)cc2)OCc2cc(C#N)ccc21` [escitalopram], at MAO-A, the “Hill Slope, MAO-A” value worked out at 0.99 ± 0.29 and the “Residual Activity, MAO-A” value is recorded as 0.005 ± 0.057 rel.u. Besides, in test [1] (50 μmol/L), the “complex I-linked ATP kinetics (relative to control)” value is recorded as 81.6 ± 5.1%. Besides, on MAO-B, the “Hill Slope, MAO-B” value was determined as 1.13 ± 0.14 and the “Residual Activity, MAO-B” value is given as 0.038 ± 0.032 rel.u. Further, the “complex II-linked ATP kinetics (relative to control)” value in test [2] (50 μmol/L, control = 100%) amounted to 81.5 ± 4.5%.
As for `Fc1ccc([C@@H]2CCNC[C@H]2COc2ccc3c(c2)OCO3)cc1`, in test [1] (10 μmol/L), the “complex I-linked ATP kinetics (relative to control)” value is reported as 80.4 ± 5.1%. Further, in test [3], the “complex II-linked ATP content (relative to control)” value came out at 88.6 ± 4.0%. In test [4], the “complex IV activity (relative to control)” value was determined as 61.1 ± 3.1%. Moreover, the “complex II-linked ATP kinetics (relative to control)” value in test [2] (100 μmol/L) turned out to be 82.1 ± 0.1%.
